This test has as its target μ opioid receptor (Rattus norvegicus, UniProt P33535). In words: [35S]GTPγS binding assay in rat brain membranes. Format: biochemical. On the technique in general: GTPγS resists hydrolysis and so accumulates on activated G proteins.

By UniProt entry, the sequences of proteins in these tests, tags left out.
UniProt P33535, whole entry: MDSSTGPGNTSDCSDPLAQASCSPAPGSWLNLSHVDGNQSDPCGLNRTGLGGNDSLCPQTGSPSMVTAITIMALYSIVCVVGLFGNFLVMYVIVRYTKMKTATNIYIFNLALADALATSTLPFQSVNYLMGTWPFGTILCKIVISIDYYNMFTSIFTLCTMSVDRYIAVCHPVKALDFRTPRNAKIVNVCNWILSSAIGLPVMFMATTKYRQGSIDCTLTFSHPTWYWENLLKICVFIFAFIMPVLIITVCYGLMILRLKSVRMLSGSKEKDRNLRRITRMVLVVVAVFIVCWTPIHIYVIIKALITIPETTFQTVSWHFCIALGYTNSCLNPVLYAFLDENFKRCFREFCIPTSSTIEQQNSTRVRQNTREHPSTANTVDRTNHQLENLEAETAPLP

For “D-Ala^2,Me-Phe^4,Gly-ol^5]enkephalin [DAMGO]”, the “ED50, stimulation of [35S]GTPγS binding” value stood at 309 ± 35 nM. Further, under “agonist 1 μM, CTAP 1 and 10 μM”, the “Effect of CTAP (μ antagonist) on agonist-stimulated [35S]GTPγS binding” value was “antagonism of stimulatory actions”. Further, the “Effect of NTI (δ antagonist) on agonist-stimulated [35S]GTPγS binding” value (agonist 1 μM, NTI 10 nM) is reported as “no significant effect”. Besides, where the note is “agonist 1 μM, naloxone 1 μM”, the “Effect of naloxone on agonist-stimulated [35S]GTPγS binding” value is reported as “prevented by naloxone”. Under “agonist 1 μM, nor-BNI 100 nM”, the “Effect of nor-BNI (κ antagonist) on agonist-stimulated [35S]GTPγS binding” value is recorded as “no significant effect”. In addition, the “Emax, stimulation of [35S]GTPγS binding” value (percentage of basal activity (defined as 100%)) is reported as 185 ± 4%.
